Test results: PMC10892935 (Viruses, 2024)

Target: FHV-1 gB (Feline herpesvirus 1, UniProt Q86665)
Assay: biochemical
Assay type: binding, feline herpesvirus-1 (FHV-1)

## CC1OC(OC2CCC3(C)C(CCC4(C)C3C=CC3=C5CC(C)(C)CCC5(CO)C(O)CC34C)C2(C)CO)C(O)C(OC2OC(CO)C(O)C(O)C2O)C1O (centres unmarked) [Saikosaponin B2]
read-out: Kdis (rate of dissociation)
  koff: 0.922 s⁻¹
read-out: Kon (rate of association)
  kon: 3150 M⁻¹ s⁻¹
